# Assay results reported in paper PMC3272158 (Nature structural & molecular biology, 2012).
# Target: LeuT (LeuT-WT) (Aquifex aeolicus, UniProt O67854)
# Settings: 150 mM Tris/Mes pH 7.5, 50 mM NaCl, 1 mM TCEP, 0.1% DDM; 1 μM 3H-Leu; S2 site (extracellular vestibule); value is residual binding
smiles,measurement,value
CN(C)CCCN1c2ccccc2CCc2ccc(Cl)cc21 [clomipramine],"% of 3H-Leu binding in the absence of CMI, at 1 mM CMI",45.2±4.7%
